From PubChem BioAssay AID588413 (Sanford-Burnham Center for Chemical Genomics, 2011)
The list shows a part of the results, in another mix than the full data. Some structures show a salt or complex split into parts, the way the source records it. Active and inactive are the calls of the source.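 The calls were made as follows: active = inhibition above about 55% (limit read from the data); inactive = the rest.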

Experiment: Gli-Sufu pathway antagonists, primary screen, luciferase luminescence, Sufu-KO-LIGHT cells, uHTS (AID 588413);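 also: 0% = DMSO-treated cells and 100% = wells with medium but no cells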
Details: Sufu-KO-LIGHT fibroblasts, Gli luciferase reporter luminescence; at 5 µM; active compounds read high

| Structure (SMILES) | inhibition |
| --- | --- |
| CCOC(=O)c1ccc(NP(C)(=O)Oc2ccc(Cl)cc2)cc1 (stereo not given) | inactive: 3.83% |
| CP(=O)(OC12CC3CC(CC(C3)C1)C2)OC12CC3CC(CC(C3)C1)C2 | inactive: -1.37% |
| Nc1ccc2c(ccc3cccnc32)n1.O=[N+]([O-])c1cc([N+](=O)[O-])c(O)c([N+](=O)[O-])c1 | inactive: 7.32% |
| CN(C)C(=O)c1c([N+](=O)[O-])cc([N+](=O)[O-])cc1[N+](=O)[O-] | inactive: 47.2% |
| CC(C)(C)c1ccc(OP(C)(=O)O)cc1 | inactive: 4.04% |
| COc1ccccc1OP(C)(=O)Nc1ccccc1Br (stereo not given) | inactive: 2.44% |
| CP(=O)(Nc1ccc(Cl)cc1)Oc1ccc(F)cc1 (stereo not given) | inactive: 0.55% |
| O=C(OCCCN1CCCC1)C(O)(c1ccccc1)C1CCCCC1 (stereo not given) | inactive: 13.3% |
| COc1ccccc1OP(C)(=O)Nc1c(C)n(C)n(-c2ccccc2)c1=O (stereo not given) | inactive: -0.18% |
| CCc1ccc(OP(C)(=O)Nc2cccnc2)cc1 (stereo not given) | inactive: 9.39% |
| CP(=O)(Oc1ccccc1)N1CCOC1=O (stereo not given) | inactive: -0.43% |
| COc1ccc(OP(C)(=O)Nc2ccc(Br)cc2)cc1 (stereo not given) | inactive: -1.44% |
| CCN(CC)CC(O)COC(=O)C(O)(c1ccccc1)C1CCCCC1 (stereo not given) | inactive: 8.1% |
| COc1ccccc1OP(C)(=O)Nc1ccc(C)cc1C (stereo not given) | inactive: 4.04% |
| CP(=O)(Nc1ccccn1)Oc1ccccc1 (stereo not given) | inactive: -6.86% |
| CCc1ccc(OP(C)(=O)O)cc1 | inactive: 26.4% |
| O=[N+]([O-])c1cc([N+](=O)[O-])c(Nc2ccccn2)c([N+](=O)[O-])c1 | inactive: 12.9% |
| Cc1c(NP(C)(=O)Oc2ccc(C(C)C)cc2)c(=O)n(-c2ccccc2)n1C (stereo not given) | inactive: -7.12% |
| CN(C)CCOC(=O)C(O)(c1ccccc1)C1CCCC1 (stereo not given) | inactive: 6.78% |
| COc1ccccc1OP(C)(=O)Nc1ccc(Br)cc1 (stereo not given) | inactive: 16.2% |
| CP(=O)(OCCOc1ccccc1)OCCOc1ccccc1 | inactive: 2.75% |
| CCCCCCCCCCCCCCCC1C[N+](C)(C)CCOP(C)(=O)O1 (stereo not given) | inactive: -2.04% |
| CP(=O)(Nc1ccc(Cl)cc1Cl)Oc1ccccc1 (stereo not given) | inactive: -5.84% |

| Structure (SMILES) | inhibition |
| --- | --- |
| COc1ccccc1OP(C)(=O)Nc1ccc(C)c(C)c1 (stereo not given) | inactive: 6.37% |
| COc1ccc(OP(C)(=O)Nc2ccccc2Br)cc1 (stereo not given) | inactive: 4.28% |
| Cc1cc(C)cc(OP(C)(=O)Nc2cccc(C(F)(F)F)c2)c1 (stereo not given) | inactive: 7.73% |
| O=C1C(O)=C([N+](=O)[O-])C(=O)C(O)=C1[N+](=O)[O-] | inactive: 1.99% |
| CP(=O)(Nc1ccccc1)Oc1ccc(F)cc1 (stereo not given) | inactive: -8.51% |
| CCCCCOc1ccc(NP(C)(=O)Oc2ccc(Cl)cc2Cl)cc1 (stereo not given) | inactive: -8.02% |
| O=[N+]([O-])c1cc([N+](=O)[O-])c(OC2CCCCC2O)c([N+](=O)[O-])c1 (stereo not given) | inactive: 12.7% |
| Cc1c([N+](=O)[O-])cc([N+](=O)[O-])c(Br)c1[N+](=O)[O-] | inactive: -1.92% |
| CCN(CC)CCCOC(=O)C(O)(c1ccccc1)C1CCCCC1 (stereo not given) | inactive: 8.49% |
| CCOC(=O)c1ccc(NP(C)(=O)Oc2ccc(F)cc2)cc1 (stereo not given) | inactive: -1.06% |
| COc1ccc(OP(C)(=O)Nc2ccc(SC(F)(F)F)cc2)cc1 (stereo not given) | inactive: -2.31% |
| COc1ccc2c(c1O)-c1c(O)c(OC)cc3c1[C@H](C2)[N+](C)(C)CC3.O=[N+]([O-])c1cc([N+](=O)[O-])c([O-])c([N+](=O)[O-])c1[O-] | inactive: 0.77% |
| O=C(OC1CN2CCC1CC2)c1ccc([N+](=O)[O-])cc1 (stereo not given) | inactive: 2.43% |
| O=C(OCCN1CCN(CCOCc2ccccc2)CC1)C(O)(c1ccccc1)c1ccccc1 | inactive: 7.98% |
| CP(=O)(Nc1ccccc1F)Oc1ccccc1 (stereo not given) | inactive: -8.3% |
| CC(C)c1ccc(OP(C)(=O)Nc2ccc(SC(F)(F)F)cc2)cc1 (stereo not given) | inactive: -3.43% |
| Cc1ccccc1NP(C)(=O)Nc1ccccc1C | inactive: -4.92% |
| CP(=O)(Nc1ccc2c(c1)OCCO2)Oc1ccccc1 (stereo not given) | inactive: -2.36% |
| CCOP(C)(=S)SCC(=O)NC(C)(CC)C(=O)O (stereo not given) | inactive: -19.8% |
| CP(=O)(Nc1ccc(SC(F)(F)F)cc1)Oc1ccc(F)cc1 (stereo not given) | inactive: 46% |
| Cc1c(C(c2ccc3c(c2)OCO3)c2c(C)n(C)n(-c3ccccc3)c2=O)c(=O)n(-c2ccccc2)n1C.O=[N+]([O-])c1cc([N+](=O)[O-])c(O)c([N+](=O)[O-])c1 | inactive: -23.8% |
| O=[N+]([O-])c1ccc(OP2(=O)COCCO2)cc1 (stereo not given) | inactive: -2.35% |
| Cc1cc(-c2cccc3ccccc23)c(C)cn1.O=[N+]([O-])c1cc([N+](=O)[O-])c(O)c([N+](=O)[O-])c1 | inactive: 1.49% |

| Structure (SMILES) | inhibition |
| --- | --- |
| O=[N+]([O-])c1cc([N+](=O)[O-])c(NCC2CCS(=O)(=O)C2)c([N+](=O)[O-])c1 (stereo not given) | inactive: 3.08% |
| CN(C)CCOC(=O)C(O)(c1ccccc1)C1CCCCC1 (stereo not given) | inactive: -48.9% |
| COc1ccc(NP(C)(=O)Oc2ccccc2OC)cc1 (stereo not given) | inactive: 1.22% |
| COc1ccc(OP(C)(=O)Nc2cccc(Br)c2)cc1 (stereo not given) | inactive: 6.28% |
| CP(=O)(Nc1ccc(SC(F)(F)F)cc1)Oc1ccccc1 (stereo not given) | inactive: 1.77% |
| CCCOc1ccc(NP(C)(=O)Oc2ccc(Cl)cc2)cc1 (stereo not given) | inactive: 2.91% |
| CN1CCCCC1COC(=O)C1(O)c2ccccc2CCc2ccccc21 (stereo not given) | inactive: 6.63% |
| COc1ccccc1OP(C)(=O)Nc1c(C)cccc1C (stereo not given) | inactive: 12.2% |
| CCOC(=O)C(CC)C1=NC(C)(C)Cc2ccccc21.O=[N+]([O-])c1cc([N+](=O)[O-])c(O)c([N+](=O)[O-])c1 (stereo not given) | inactive: -6.77% |
| O=[N+]([O-])c1cc([N+](=O)[O-])c(Nc2nnnn2CCO)c([N+](=O)[O-])c1 | inactive: -4.79% |
| CC1=C2N=C(C=C3N=C(C(C)=C4[N-][C@@](C)([C@@H]5N=C1[C@](C)(CCC(=O)NC[C@@H](C)OP(=O)([O-])O[C@H]1[C@@H](O)[C@@H](n6cnc7cc(C)c(C)cc76)O[C@@H]1CO)[C@H]5CC(N)=O)[C@@](C)(CC(N)=O)[C@@H]4CCC(N)=O)[C@@](C)(CC(N)=O)[C@@H]3CCC(N)=O)C(C)(C)[C@@H]2CCC(N)=O.[C-]#N.[Co+3] | inactive: 50.2% |
| Cc1nc2ccc3ccccc3c2s1.O=[N+]([O-])c1cc([N+](=O)[O-])c(O)c([N+](=O)[O-])c1 | inactive: -0.82% |
| O=[N+]([O-])c1cc([N+](=O)[O-])c(-c2cnn(-c3ccccc3)c2)c([N+](=O)[O-])c1 | inactive: 13.3% |
| O=[N+]([O-])c1cc([N+](=O)[O-])c(-n2nnc3ccccc32)c([N+](=O)[O-])c1 | inactive: 33.8% |
| Cc1ccc(C)c(NP(C)(=O)Oc2ccccc2)c1 (stereo not given) | inactive: -3.13% |
| CP(=O)(Nc1cccc(Br)c1)Oc1ccccc1 (stereo not given) | inactive: 0.23% |
| Cc1cc(C)cc(OP(C)(=O)Nc2ccccn2)c1 (stereo not given) | inactive: -1.21% |
| CCOC(=O)c1ccc(NP(C)(=O)Oc2cc(C)cc(C)c2)cc1 (stereo not given) | inactive: 1.47% |
| Cc1cc(C)cc(OP(C)(=O)Nc2ccc(C)cc2C)c1 (stereo not given) | inactive: 0.71% |
| COc1ccccc1OP(C)(=O)Nc1cccc(Br)c1 (stereo not given) | inactive: 6.6% |
| CC1=NCCc2c1[nH]c1ccccc21.O=[N+]([O-])c1cc([N+](=O)[O-])c(O)c([N+](=O)[O-])c1 | inactive: -5.63% |
| O=C(O)c1cccc(Nc2c([N+](=O)[O-])cc([N+](=O)[O-])cc2[N+](=O)[O-])c1 | inactive: -0.2% |
| COc1ccc(OP(C)(=O)Nc2cccc(F)c2)cc1 (stereo not given) | inactive: 19.5% |

| Structure (SMILES) | inhibition |
| --- | --- |
| COc1ccccc1OP(C)(=O)Nc1cc(Cl)ccc1C (stereo not given) | inactive: 7.44% |
| Cc1ccc(NP(C)(=O)Oc2ccccc2)c(C)c1 (stereo not given) | inactive: -17.7% |
| COc1ccccc1OP(C)(=O)Nc1ccc(C)cc1 (stereo not given) | inactive: 6.75% |
| CCOC(=O)c1ccc(NP(C)(=O)Oc2ccccc2)cc1 (stereo not given) | inactive: -0.03% |
| O=[N+]([O-])c1ccc2c(c1)C=Nc1ccccc1O2 | inactive: 42.6% |
| Cc1cccc(C)c1OP(C)(N)=O (stereo not given) | inactive: -10.7% |
| O=[N+]([O-])c1cc([N+](=O)[O-])c(Nc2cccnc2)c([N+](=O)[O-])c1 | inactive: 27.5% |
| CCN(CC)CCCOC(=O)C(O)(c1ccccc1)c1ccccc1 | inactive: -7.14% |
| CP(=O)(Nc1ccccn1)Oc1ccc(Cl)cc1 (stereo not given) | inactive: -0.69% |
| O=[N+]([O-])c1cc([N+](=O)[O-])c(O)c([N+](=O)[O-])c1.c1ccc(Oc2ccncc2)cc1 | inactive: -6% |
| CCOC(=O)c1ccc(NP(C)(=O)Oc2ccc(OC)cc2)cc1 (stereo not given) | inactive: -3.29% |
| CCOP(C)(=S)SCC(=O)NC(C)C(=O)O (stereo not given) | inactive: 3.22% |
| Cc1cc(C)cc(OP(C)(=O)Nc2ccc(SC(F)(F)F)cc2)c1 (stereo not given) | inactive: 4.79% |
| CCc1ccc(OP(C)(=O)N2CCN(c3ccc([N+](=O)[O-])cc3)CC2)cc1 (stereo not given) | inactive: 8.28% |
| CP(=O)(NC(=O)Nc1ccccc1)Oc1ccccc1 (stereo not given) | inactive: -5.01% |
| CP(=O)(Oc1ccccc1)OC(c1ccccc1)C(F)(F)F (stereo not given) | inactive: 13.5% |
| CP(=O)(Nc1ccc(SC(F)(F)F)cc1)Oc1ccc(Cl)cc1 (stereo not given) | inactive: 1.48% |
| Cc1cccc(C)c1OP(C)(=O)Nc1ccc(SC(F)(F)F)cc1 (stereo not given) | inactive: 4.55% |
| CP(=O)(Nc1ccccc1Br)Oc1ccccc1 (stereo not given) | inactive: -1.95% |
| COc1ccccc1OP(C)(=O)Nc1ccccc1 (stereo not given) | inactive: 1.22% |
| CP(=S)(Nn1cnnc1)Oc1ccccc1 (stereo not given) | inactive: -20.6% |
